Data on one molecule can be found in patent publication US20260184692A1, “HETEROCYCLIC COMPOUNDS, PREPARATION METHODS AND USES THEREOF” (InventisBio Co., Ltd., priority 2022, published 2026).

The chains behind the UniProt entries cited, without tags or fusion partners.
UniProt O75469, whole entry: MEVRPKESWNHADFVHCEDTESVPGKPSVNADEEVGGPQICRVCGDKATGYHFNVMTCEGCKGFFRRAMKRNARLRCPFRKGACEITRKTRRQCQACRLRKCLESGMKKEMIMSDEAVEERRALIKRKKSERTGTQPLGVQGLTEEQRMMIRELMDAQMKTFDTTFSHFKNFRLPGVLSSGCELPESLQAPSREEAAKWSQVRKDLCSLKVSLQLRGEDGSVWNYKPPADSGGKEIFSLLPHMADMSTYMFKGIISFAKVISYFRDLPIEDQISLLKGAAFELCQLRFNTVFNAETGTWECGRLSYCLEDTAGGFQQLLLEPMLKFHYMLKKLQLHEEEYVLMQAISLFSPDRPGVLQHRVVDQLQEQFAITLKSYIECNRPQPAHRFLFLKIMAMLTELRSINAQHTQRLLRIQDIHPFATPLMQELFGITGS
UniProt P11712, whole entry: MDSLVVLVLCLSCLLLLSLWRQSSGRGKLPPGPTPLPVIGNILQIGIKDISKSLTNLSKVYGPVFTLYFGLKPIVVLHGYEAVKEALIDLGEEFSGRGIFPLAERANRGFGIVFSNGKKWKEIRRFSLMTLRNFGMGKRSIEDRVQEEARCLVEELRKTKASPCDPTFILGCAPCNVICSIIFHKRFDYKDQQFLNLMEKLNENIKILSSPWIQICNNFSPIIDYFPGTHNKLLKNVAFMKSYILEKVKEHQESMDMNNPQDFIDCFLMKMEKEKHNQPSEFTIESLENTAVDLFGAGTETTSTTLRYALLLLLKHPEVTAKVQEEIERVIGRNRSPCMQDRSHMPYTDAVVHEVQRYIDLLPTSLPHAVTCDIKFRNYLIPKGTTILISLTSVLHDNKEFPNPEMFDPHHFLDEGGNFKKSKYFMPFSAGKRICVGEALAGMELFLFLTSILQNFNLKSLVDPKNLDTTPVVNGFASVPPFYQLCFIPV

For one series, the target named is PXR (Homo sapiens, UniProt O75469). The series is described as follows: In Vitro PXR Activation Study (DPX2 cells). The conditions noted are these: concentration 30 uM, 48 h treatment.
Series [1] in a line: Human Plasma Protein Binding Assay (dialysis). The note with it: 1 μM compound, dialysis 6 hr at 37 °C.
The next series concerns the target P450 2C9 (Homo sapiens, UniProt P11712). The series is described as follows: In Vitro Cytochrome P450 Inhibition Study. The note with it: read-out: 2C9, IC50; human liver microsomes (HLM), test compound 0.137 μM to 10 μM, 10 min at 37 °C. (Microsomes from liver hold many membrane-bound enzymes, among them those of drug oxidation.)

The IC50 is the concentration that gives 50% inhibition. Turning to `Cc1cc(NC(=O)c2ccc(NS(=O)(=O)CCO)cc2N2CCC3(CC2)CC3)nc(N2CCC(F)(F)CC2)n1`, the Induction Fold at PXR came out at 5.8 x. Moreover, in series [1], the “% Unbound” value came out at 0.012%. Moreover, the IC50 on P450 2C9 worked out at 2.5 µM.
